# Measured affinities in a library of Ab-14 heavy chain variants

Source: Li et al. 2023 (doi:10.1038/s41467-023-39022-2), MIT Lincoln Laboratory and A-Alpha Bio; data file from the FLAb repository.

Antigen: PDVDLGDISGINAS, a 14-residue peptide of the SARS-CoV-2 spike HR2 region.

Parent scFv Ab-14: VH joined to VL by a 15-residue (Gly4Ser)3 linker. Changes lie in the heavy chain CDRs alone.
VH: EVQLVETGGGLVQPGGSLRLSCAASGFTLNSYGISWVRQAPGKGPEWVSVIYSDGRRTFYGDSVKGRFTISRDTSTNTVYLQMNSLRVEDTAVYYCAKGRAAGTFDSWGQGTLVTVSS
VL: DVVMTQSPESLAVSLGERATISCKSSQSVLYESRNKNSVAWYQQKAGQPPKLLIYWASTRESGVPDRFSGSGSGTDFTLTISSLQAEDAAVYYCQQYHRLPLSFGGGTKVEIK

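Phage display of a naive human antibody library on the peptide gave the parent. This is the validation round: designs drawn from the data on random variants, tested in the same kind of assay. Their group label is 14H_GP_Gen (GP: Gaussian process model; Gen: genetic algorithm; a sequence that several methods proposed may carry one label only). The scFvs were displayed on barcoded MATa yeast, the peptide on MATalpha yeast. Binding brings cells together so that they mate, and sequencing counts the barcode pairs among the diploids. A regression on co-assayed BCL2-family reference pairs converts the normalised counts of each replicate to an apparent Kd. The assay was run in six technical replicates.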

The parent's heavy chain CDRs are GFTLNSYGIS, VIYSDGRRTFYGDSVK, GRAAGTFDS; each variant's own CDRs replace them letter for letter. Scale: log10 of Kd in nM, estimated from mating counts; low values are strong binders. An entry "n.d." has no value in the source: the pair was not observed among the diploids in that replicate. This suggests poor binding but is not conclusive.

| # | CDR-H1 | CDR-H2 | CDR-H3 | replicates, log10 nM | signal with controls |
|---|---|---|---|---|---|
| 1 | GFDLNSYGIS | VIYSDGRRTFYGDSVK | GKVAGTFDT | 0.19 / 0.14 / 0.65 / 0.48 / 0.48 / 0.56 | 0 of 18 |
| 2 | KFTLNSYGIS | VIYSDGRRTFYADSVK | GKTAGTFDS | 0.40 / 0.67 / 1.41 / 0.61 / 0.38 / 0.22 | 0 of 18 |
| 3 | MFDLNSYGIS | VIYSDGRRTFYGDSVK | GNAAGTFDS | n.d. / n.d. / n.d. / 1.57 / 1.15 / n.d. | 0 of 18 |
| 4 | GFGLNEYGIS | VIYSDGRRTFYSDSVK | GQAAGTFDS | 0.07 / -0.23 / -0.30 / -0.23 / -0.28 / -0.23 | 0 of 18 |
| 5 | GFDLNSYGIS | VIYSDGRRTFYGDQVK | GQTAGTFDS | 0.22 / 0.02 / 0.02 / 0.01 / -0.06 / 0.33 | 0 of 18 |
| 6 | GFSLNSYGIS | VIYSDGRRTFYADDVK | GKTAGTFDS | n.d. / n.d. / n.d. / n.d. / n.d. / n.d. | 0 of 18 |
| 7 | YFDLNSYGIS | VIYSDGRRTAYGDSVK | GRAAGTFDS | 2.04 / 0.89 / 1.29 / 1.24 / 0.72 / 1.50 | 0 of 18 |
| 8 | GFDLNSYGIS | VIYSDGRRTFYGDSVK | GKTAGTFDC | n.d. / n.d. / n.d. / n.d. / n.d. / 1.89 | 1 of 18 (2.50) |
| 9 | GFDLNSYGIS | VIYSDGRRTFYADSVK | GREAGTFDK | -0.09 / 0.02 / -0.31 / -0.27 / -0.45 / -0.14 | 0 of 18 |
| 10 | GFDLNSYGIS | VIYSDGRRTFYDDQVK | GRTAGTFDS | 0.08 / -0.69 / -0.38 / -0.47 / -0.20 / -0.10 | 0 of 18 |
| 11 | GFDLNSYGIS | VIYSDGRRTFYQDSVK | GKTAGTFDS | -0.15 / 0.13 / -0.14 / -0.36 / -0.22 / -0.15 | 1 of 18 (2.04) |
| 12 | GFTLNSYGIS | VIYADGRRTFYGDSVK | GWAAGTFDL | n.d. / 0.93 / 0.52 / 0.44 / n.d. / 0.03 | 0 of 18 |
| 13 | GFGLNEYGIS | VIYSDGRRTFYGDSVK | GRIAGTFDS | 0.33 / 0.40 / 0.33 / 0.37 / 0.45 / 0.55 | 1 of 18 (2.90) |
| 14 | GFTLNSYGIS | VIYSDGRRTFYGDSVK | GKQAGTFDT | n.d. / 1.48 / 2.05 / 1.01 / 1.59 / 1.38 | 0 of 18 |
| 15 | GFTLNSYGIS | VIYSDGKRTFYKDSVK | GRTAGTFDS | -0.28 / 0.57 / -0.55 / n.d. / 0.72 / 0.67 | 0 of 18 |
| 16 | GFSLNSYGIS | VIYSDGRRTAYGDSVK | GWAAGTFDS | 1.35 / 0.14 / 1.16 / 1.16 / 1.00 / 1.69 | 0 of 18 |
| 17 | GFELNSYGIS | VIYSDGRRTFYKDSVK | GRNAGTFDS | 0.59 / 0.80 / 1.41 / 0.42 / 0.92 / 0.90 | 1 of 18 (2.77) |
| 18 | GFTLNSYGIS | VIYSDGKRTFYGDSVK | GRVAGTFDQ | n.d. / 1.66 / n.d. / n.d. / n.d. / n.d. | 0 of 18 |
| 19 | GFELNEYGIS | VIYSDGRRTFYGDAVK | GRTAGTFDS | -0.04 / -0.34 / -0.12 / -0.16 / 0.11 / 0.27 | 0 of 18 |
| 20 | GFELNSYGIS | VIYSDGRRTFYGDSVK | GKTAGTFDG | 0.42 / 0.31 / -0.21 / -0.28 / 0.20 / 0.00 | 1 of 18 (2.25) |
| 21 | GFNLNSYGIS | VIYSDGRRTFYFDSVK | GRTAGTFDS | n.d. / n.d. / n.d. / 1.72 / n.d. / n.d. | 0 of 18 |
| 22 | GFELNSYGIS | VIYSDGRRTFYGDSVK | GKTAGTFDC | n.d. / n.d. / n.d. / n.d. / n.d. / n.d. | 0 of 18 |
| 23 | GFSLNSYGIS | VIYSDGRRTFYKDSVK | GMTAGTFDS | 0.35 / 0.19 / -0.04 / 0.34 / 0.26 / 0.55 | 0 of 18 |
| 24 | GFQLNEYGIS | VIYSDGRRTFYGDSVK | GRTAGTFDF | 0.56 / 0.38 / -0.10 / 0.03 / -0.13 / 0.25 | 0 of 18 |
| 25 | MFDLNSYGIS | VIYSDGRRTFYGDSVK | GKQAGTFDS | n.d. / n.d. / n.d. / 1.16 / n.d. / n.d. | 0 of 18 |
| 26 | GFNLNSYGIS | VIYSDGRRTFYGDEVK | GRTAGTFDS | n.d. / n.d. / n.d. / n.d. / n.d. / n.d. | 0 of 18 |
| 27 | KFDLNSYGIS | VIYSDGRRTFYVDSVK | GRTAGTFDS | n.d. / 2.62 / n.d. / 1.59 / n.d. / 0.71 | 0 of 18 |
| 28 | GFHLNSYGIS | VIYSDGRRTAYGDSVK | GRQAGTFDS | 0.68 / -0.05 / 0.16 / -0.90 / n.d. / n.d. | 0 of 18 |
| 29 | HFDLNSYGIS | VIYSDGRRTFYGDSVK | GREAGTFDS | 0.82 / 0.56 / n.d. / 0.72 / 0.07 / -0.09 | 0 of 18 |
| 30 | SFELNSYGIS | VIYADGRRTFYGDSVK | GRTAGTFDS | n.d. / n.d. / n.d. / n.d. / n.d. / n.d. | 1 of 18 (1.05) |
| 31 | GFDLNSYGIS | VIYADGRRTFYGDSVK | GRAAGTFDV | -0.25 / -0.35 / -0.42 / -0.46 / -0.27 / -0.06 | 1 of 18 (3.21) |
| 32 | GFELNEYGIS | VIYSDGRRTFYGDSVK | GHAAGTFDL | 0.17 / 0.28 / 0.00 / -0.01 / 0.16 / 0.15 | 1 of 18 (2.56) |

The opening 2 entries, copied out:

{"CDR-H1": "GFDLNSYGIS", "CDR-H2": "VIYSDGRRTFYGDSVK", "CDR-H3": "GKVAGTFDT", "replicates, log10 nM": "0.19 / 0.14 / 0.65 / 0.48 / 0.48 / 0.56", "signal with controls": "0 of 18"}
{"CDR-H1": "KFTLNSYGIS", "CDR-H2": "VIYSDGRRTFYADSVK", "CDR-H3": "GKTAGTFDS", "replicates, log10 nM": "0.40 / 0.67 / 1.41 / 0.61 / 0.38 / 0.22", "signal with controls": "0 of 18"}

The range of this assay differs from that of the first round, and the authors advise against merging the two. The parent sequence was in this pool as ten entries: three were never detected, three once, and four in most replicates, with averages from 0.34 to 2.37. Nonspecific signal, from three strains lacking the peptide, appeared in 1% of pairings of all heavy chain designs, centred on 2.08 (5% of these signals below 0.84); values are not corrected for it. For each scFv, signals with the empty controls are counted beside the result, with their mean in brackets. The authors averaged sequences with at least three values out of six and counted those with two or fewer as poor binders.